Values joined by “and” are separate entries in the source; they are usually repeats but may differ in a detail not shown here. Identical values can stand only once.
Tests used:
LuxR [1] = target: T1, LuxR (Aliivibrio fischeri, UniProt P35327); settings: read-out: LuxR EC50; V. fischeri ES114 (Δ-luxI)
LuxR [2] = target: T1, LuxR; settings: 5 μM synthetic ligand against 5 μM OHHL; V. fischeri ES114 (Δ-luxI); normalized to OHHL

Amino acid sequences for entries named in this document (tags omitted).
UniProt P35327, whole entry: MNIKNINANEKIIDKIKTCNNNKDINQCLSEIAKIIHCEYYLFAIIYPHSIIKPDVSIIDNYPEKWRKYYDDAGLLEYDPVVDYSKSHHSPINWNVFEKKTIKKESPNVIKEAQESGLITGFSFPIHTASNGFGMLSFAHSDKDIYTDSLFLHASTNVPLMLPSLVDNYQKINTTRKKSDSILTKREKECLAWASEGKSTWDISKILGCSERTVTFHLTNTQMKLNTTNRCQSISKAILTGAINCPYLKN

## O=C(Cc1cccc(Cl)c1)N[C@H]1CCOC1=O
LuxR [1]
  EC50: > 200 µM

## O=C(Cc1cccc(Br)c1)N[C@H]1CCOC1=O
LuxR [2]
  V. fischeri-LuxR Inhibition [%]: 58% and 48%
LuxR [1]
  EC50: > 50 µM

— patent US7910622B2, “Modulation of bacterial quorum sensing with synthetic ligands” (Wisconsin Alumni Research Foundation, priority 2007, dated 2011)
